Experimental data from US20050148627A1, “Benzopyran compounds for use in the treatment and prevention of inflammation related conditions” (priority 2003, published 2005).
Where “and” joins values, the source holds several entries; their conditions need not be identical. Equal entries are not always repeated.

Amino acid sequences for entries named in this document (tags omitted). Residues count along the entry.
UniProt P23219, 24-599: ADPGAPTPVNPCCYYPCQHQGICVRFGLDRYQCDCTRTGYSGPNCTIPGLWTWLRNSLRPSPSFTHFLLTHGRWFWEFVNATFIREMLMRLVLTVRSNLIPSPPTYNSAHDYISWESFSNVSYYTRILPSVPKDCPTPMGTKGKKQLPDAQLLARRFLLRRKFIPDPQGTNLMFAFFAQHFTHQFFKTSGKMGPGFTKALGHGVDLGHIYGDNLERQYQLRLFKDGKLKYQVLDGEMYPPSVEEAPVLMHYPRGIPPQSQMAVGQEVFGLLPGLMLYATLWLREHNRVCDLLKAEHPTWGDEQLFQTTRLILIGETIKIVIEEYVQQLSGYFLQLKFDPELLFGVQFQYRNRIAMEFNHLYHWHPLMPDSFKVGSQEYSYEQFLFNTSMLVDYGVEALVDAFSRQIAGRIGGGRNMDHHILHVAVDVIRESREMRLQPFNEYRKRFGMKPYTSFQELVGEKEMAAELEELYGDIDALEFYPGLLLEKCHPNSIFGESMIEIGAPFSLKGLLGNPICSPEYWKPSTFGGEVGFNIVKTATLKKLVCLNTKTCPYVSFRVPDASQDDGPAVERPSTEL

Target: COX-1 (Homo sapiens, UniProt P23219)
Assay: biochemical

IC50: 2460 nM and 1050 nM
SMILES: Cc1cc(OC(F)(F)F)cc2c1OC(C(F)(F)F)C(C(=O)O)=C2 (racemic) [Example 21b, 8-methyl-6-(trifluoromethoxy)-2-(trifluoromethyl)-2H-chromene-3-carboxylic acid]
